Patent US7282373B2 (priority 2004, dated 2007)

Protein sequences, listed by entry. Tags and fused reporters are not part of them. Lines headed by an entry give the natural chain unless they say otherwise; changes in a name come on top.
UniProt P0A7Z4: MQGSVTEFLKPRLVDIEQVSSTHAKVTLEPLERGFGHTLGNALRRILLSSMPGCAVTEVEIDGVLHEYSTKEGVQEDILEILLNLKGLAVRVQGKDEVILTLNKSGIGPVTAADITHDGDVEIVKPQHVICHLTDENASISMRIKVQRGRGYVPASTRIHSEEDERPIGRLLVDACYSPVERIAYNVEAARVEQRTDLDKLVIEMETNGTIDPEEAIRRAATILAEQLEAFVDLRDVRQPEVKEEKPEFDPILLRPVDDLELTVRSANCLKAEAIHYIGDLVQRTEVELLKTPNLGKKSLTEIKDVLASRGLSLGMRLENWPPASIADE

What was measured:
untagged α = untagged α (Escherichia coli, UniProt P0A7Z4); test: Labeling of untagged α, purified protein (SDS-PAGE, x/y fluorescence scanning); conditions: 1 mM or 5 mM DTT; 450 μM bis-arsenical, 10 μM α derivative
[1] = Spectroscopic properties of fluorochrome conjugates; type: physicochemical; conditions: in methanol
α-CCPGCCN = α-CCPGCCN (Escherichia coli, UniProt P0A7Z4); test: Labeling of tagged α, purified protein (SDS-PAGE, x/y fluorescence scanning); conditions: 1 mM or 5 mM DTT; 450 μM bis-arsenical, 10 μM α derivative
[2] = tested on: tetracysteine-tagged peptide “P3”; conditions: pair “G1^0” and “P3”; 5, 10, 20 mM DTT
[3] = tested on: doubly-tetracysteine-tagged peptide “SARP-P4/G1-HL4X”; conditions: excitation 488 nm, emission ≧680 nm
[4] = tested on: tetracysteine-tagged peptide “P4”; conditions: pair “G1^0” and “P4”; 5, 10, 20 mM DTT
[5] = tested on: doubly-tetracysteine-tagged peptide “SARP-P4/G1-PP12”; conditions: excitation 488 nm, emission ≧680 nm
[6] = tested on: doubly-tetracysteine-tagged peptide “SARP-P4/G1-PP9”; conditions: excitation 488 nm, emission ≧680 nm
[7] = tested on: tetracysteine-tagged peptide “P5”; conditions: pair “G1^0” and “P5”; 5, 10, 20 mM DTT
[8] = tested on: tetracysteine-tagged peptide “G1^0”; conditions: 5, 10, 20 mM DTT
[9] = tested on: tetracysteine-tagged peptide “P6”; conditions: pair “G1^0” and “P6”; 5, 10, 20 mM DTT
[10] = target: doubly-tetracysteine-tagged protein “α-SARP-P3/G1-PP9” (Escherichia coli, UniProt P0A7Z4); test: Multicolor, multisite labeling of single proteins (SARP) in crude lysate; type: binding
[11] = target: doubly-tetracysteine-tagged protein “α-SARP-P4/G1-PP9” (Escherichia coli, UniProt P0A7Z4); test: as above; type: binding
[12] = no other protein detectably labeled

Substance	labeling of untagged α (untagged α)	λmax,em [1] [nm]	λmax,exc [1] [nm]	labeling of α-CCPGCCN (α-CCPGCCN)	other results
Cy3 bis-propionamido-phenylarsine-ethanedithiol	no labeling was observed	567	552	labeling was observed	
Cy3 bis-propionamido-phenylarsineoxide	no labeling was observed	566	552	labeling was observed	
Cy3 bis-sulfonato bis-propionamido-phenylarsine-ethanedithiol		572	558		
Cy5 bis-propionamido-phenylarsine-ethanedithiol	no labeling was observed	666	648	labeling was observed	
Cy5 bis-propionamido-phenylarsineoxide	no labeling was observed	665	647	labeling was observed	
Cy5 bis-sulfonato bis-propionamido-phenylarsine-ethanedithiol		673	650		labeling of “P3” [2]: labeled; co-labeling and FlAsH-Cy5 FRET (SARP detection) ([3]; both probes added): co-labeled; FlAsH-Cy5-FRET-dependent detection signal, control with this probe alone (other probe omitted) [3]: no signal; labeling of “P4” [4]: labeled; co-labeling and FlAsH-Cy5 FRET (SARP detection) ([5]; both probes added): co-labeled; FlAsH-Cy5-FRET-dependent detection signal, control with this probe alone (other probe omitted) [5]: no signal; co-labeling and FlAsH-Cy5 FRET (SARP detection) ([6]; both probes added): co-labeled; FlAsH-Cy5-FRET-dependent detection signal, control with this probe alone (other probe omitted) [6]: no signal; labeling of “P5” [7]: labeled; labeling of “G1^0” as level of labeling of “P3” ([8]; pair “G1^0” and “P3”): < 10%; labeling of “G1^0” as level of labeling of “P4” ([8]; pair “G1^0” and “P4”): < 10%; labeling of “G1^0” as level of labeling of “P5” ([8]; pair “G1^0” and “P5”): < 10%; labeling of “G1^0” as level of labeling of “P6” ([8]; pair “G1^0” and “P6”): < 10%; labeling of “P6” [9]: labeled; FlAsH-Cy5-FRET-dependent detection signal, control with this probe alone (other probe omitted) [10]: no signal; co-labeling and FlAsH-Cy5 FRET (SARP detection) ([10]; both probes added): co-labeled; specificity of co-labeling and FlAsH-Cy5-FRET-dependent detection [10, 12]: highly specific; FlAsH-Cy5-FRET-dependent detection signal, control with this probe alone (other probe omitted) [11]: no signal; co-labeling and FlAsH-Cy5 FRET (SARP detection) ([11]; both probes added): co-labeled; specificity of co-labeling and FlAsH-Cy5-FRET-dependent detection [11, 12]: highly specific
Cy7 bis-propionamido-phenylarsine-ethanedithiol		774	743		
